Experimental data: patent US20220281846A1, “COMPOUNDS AND COMPOSITIONS FOR THE TREATMENT OF RESPIRATORY DISEASES” (THE UNIVERSITY OF MELBOURNE, priority 2018, published 2022)

By UniProt entry, the sequences of proteins in these tests, tags left out. Where a name states a change or a piece, a line headed by the entry shows the natural chain unless it says otherwise. Residues count along the entry.
UniProt P48730, whole entry: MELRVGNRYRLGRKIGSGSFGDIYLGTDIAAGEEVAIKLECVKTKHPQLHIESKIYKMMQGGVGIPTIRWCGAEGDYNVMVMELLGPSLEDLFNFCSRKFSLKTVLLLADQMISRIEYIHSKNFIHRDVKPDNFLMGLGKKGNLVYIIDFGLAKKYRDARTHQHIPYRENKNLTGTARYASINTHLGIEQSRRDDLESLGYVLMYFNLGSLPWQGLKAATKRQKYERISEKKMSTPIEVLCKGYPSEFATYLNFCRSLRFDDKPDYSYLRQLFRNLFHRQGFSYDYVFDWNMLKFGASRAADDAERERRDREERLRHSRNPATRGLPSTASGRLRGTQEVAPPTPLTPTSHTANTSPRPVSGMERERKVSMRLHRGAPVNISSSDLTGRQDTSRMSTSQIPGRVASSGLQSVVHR
UniProt Q15303, 26-1308 limits assumed: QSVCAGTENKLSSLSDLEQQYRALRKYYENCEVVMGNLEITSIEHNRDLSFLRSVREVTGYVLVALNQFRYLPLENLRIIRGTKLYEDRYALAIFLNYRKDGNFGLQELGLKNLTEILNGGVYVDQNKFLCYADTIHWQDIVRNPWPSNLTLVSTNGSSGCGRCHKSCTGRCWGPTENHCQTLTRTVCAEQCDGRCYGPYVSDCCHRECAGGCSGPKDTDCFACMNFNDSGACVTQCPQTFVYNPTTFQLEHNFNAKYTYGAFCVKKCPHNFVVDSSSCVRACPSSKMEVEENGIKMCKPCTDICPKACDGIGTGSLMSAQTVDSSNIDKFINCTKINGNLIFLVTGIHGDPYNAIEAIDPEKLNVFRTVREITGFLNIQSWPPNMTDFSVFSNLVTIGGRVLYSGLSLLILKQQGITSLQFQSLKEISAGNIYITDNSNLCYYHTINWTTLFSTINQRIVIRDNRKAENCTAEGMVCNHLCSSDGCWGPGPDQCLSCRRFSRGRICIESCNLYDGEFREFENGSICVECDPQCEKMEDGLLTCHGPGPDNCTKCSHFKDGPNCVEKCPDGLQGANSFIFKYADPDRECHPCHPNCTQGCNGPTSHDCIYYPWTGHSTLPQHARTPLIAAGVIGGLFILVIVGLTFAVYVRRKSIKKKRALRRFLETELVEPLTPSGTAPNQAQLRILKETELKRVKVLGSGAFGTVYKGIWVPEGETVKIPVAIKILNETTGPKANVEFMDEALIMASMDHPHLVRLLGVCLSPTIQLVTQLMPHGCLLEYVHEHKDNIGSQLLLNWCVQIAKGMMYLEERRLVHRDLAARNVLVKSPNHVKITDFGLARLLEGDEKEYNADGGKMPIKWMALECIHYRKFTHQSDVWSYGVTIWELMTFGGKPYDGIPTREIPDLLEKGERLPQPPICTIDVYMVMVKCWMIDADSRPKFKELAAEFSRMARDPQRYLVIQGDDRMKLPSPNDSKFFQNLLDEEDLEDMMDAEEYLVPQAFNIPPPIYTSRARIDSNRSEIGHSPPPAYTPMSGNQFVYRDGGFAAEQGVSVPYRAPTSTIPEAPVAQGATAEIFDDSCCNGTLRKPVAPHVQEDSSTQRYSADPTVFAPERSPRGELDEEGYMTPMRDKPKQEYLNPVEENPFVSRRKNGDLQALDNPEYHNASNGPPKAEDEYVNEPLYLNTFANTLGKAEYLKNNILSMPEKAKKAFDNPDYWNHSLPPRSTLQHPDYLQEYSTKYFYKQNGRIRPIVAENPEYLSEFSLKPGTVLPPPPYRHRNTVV
UniProt Q8N4C8, whole entry: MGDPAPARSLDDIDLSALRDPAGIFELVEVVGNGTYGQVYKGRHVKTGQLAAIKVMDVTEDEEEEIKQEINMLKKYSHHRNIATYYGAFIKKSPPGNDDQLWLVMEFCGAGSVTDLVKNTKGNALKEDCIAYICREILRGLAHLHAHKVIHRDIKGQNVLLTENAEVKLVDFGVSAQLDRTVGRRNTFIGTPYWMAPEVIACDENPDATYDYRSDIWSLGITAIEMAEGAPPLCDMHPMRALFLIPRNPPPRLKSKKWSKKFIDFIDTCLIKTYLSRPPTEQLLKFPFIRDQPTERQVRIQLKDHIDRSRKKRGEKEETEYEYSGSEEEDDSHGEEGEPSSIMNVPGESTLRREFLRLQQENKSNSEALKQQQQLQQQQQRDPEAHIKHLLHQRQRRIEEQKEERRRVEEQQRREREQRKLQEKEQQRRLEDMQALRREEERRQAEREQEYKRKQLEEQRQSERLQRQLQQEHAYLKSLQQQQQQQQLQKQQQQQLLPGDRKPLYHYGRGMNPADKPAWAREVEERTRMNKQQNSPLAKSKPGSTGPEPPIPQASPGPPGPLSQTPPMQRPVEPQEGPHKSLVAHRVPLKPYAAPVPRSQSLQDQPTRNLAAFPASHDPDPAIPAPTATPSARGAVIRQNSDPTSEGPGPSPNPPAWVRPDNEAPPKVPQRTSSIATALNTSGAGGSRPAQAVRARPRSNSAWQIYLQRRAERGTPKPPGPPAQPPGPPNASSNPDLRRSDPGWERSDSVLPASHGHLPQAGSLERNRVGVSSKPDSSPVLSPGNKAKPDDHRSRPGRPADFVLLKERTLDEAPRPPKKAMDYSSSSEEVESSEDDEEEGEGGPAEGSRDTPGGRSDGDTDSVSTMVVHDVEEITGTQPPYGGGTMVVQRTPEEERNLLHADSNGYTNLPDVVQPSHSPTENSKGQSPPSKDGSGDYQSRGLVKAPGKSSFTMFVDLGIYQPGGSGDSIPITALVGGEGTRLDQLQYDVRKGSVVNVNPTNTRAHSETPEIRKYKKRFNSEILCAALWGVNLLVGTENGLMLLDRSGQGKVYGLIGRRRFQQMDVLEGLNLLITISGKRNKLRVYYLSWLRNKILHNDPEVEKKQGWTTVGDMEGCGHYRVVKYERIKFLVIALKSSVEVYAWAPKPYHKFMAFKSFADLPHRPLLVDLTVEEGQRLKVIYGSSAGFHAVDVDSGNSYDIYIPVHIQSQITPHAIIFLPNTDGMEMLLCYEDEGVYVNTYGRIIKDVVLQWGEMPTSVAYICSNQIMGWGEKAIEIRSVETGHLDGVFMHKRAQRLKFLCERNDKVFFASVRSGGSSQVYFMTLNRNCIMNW

Experiments:
[1] = tested on: TGF-β-induced IL-11 in primary human parenchymal fibroblast cells (pFbs); test: Human parenchymal fibroblast cell assay, TGF-β-induced IL-11 (ELISA); conditions: compounds 0.1-10 μM 30 min prior to TGF-β1, 16-24 hours; 4.00* is assigned to compounds that failed to cause 50% or more inhibition at 10 mM
[2] = target: human recombinant Casein kinase 18 (CK1δ) (Homo sapiens, UniProt P48730); test: Kinase inhibition assay (HotSpot, Reaction Biology Corp), CK1δ; format: biochemical; conditions: 10 μM ATP, 10-dose IC50 mode
ERBB4/HER4 = ERBB4/HER4 (Homo sapiens, UniProt Q15303); test: Kinase inhibition assay (HotSpot), ERBB4/HER4; conditions: read-out: Compound IC50 (M) ERBB4/HER4; 10 μM ATP, 10-dose IC50 mode
MINK/MINK1 = MINK/MINK1 (Homo sapiens, UniProt Q8N4C8); test: Kinase inhibition assay (HotSpot), MINK/MINK1; conditions: read-out: Compound IC50 (M) MINK/MINK1; 10 μM ATP, 10-dose IC50 mode

OCCCNc1nccc(-c2c(-c3ccc(F)cc3)ncn2C2CCCCC2)n1
pIC50 IL-11 suppression [1]: 4 · | pIC50 ([2]; casein kinase 1δ): 8.74 | IC50 ([2]; read-out: Compound IC50 (M) CK1δ): 1.82e-09 M | IC50 (ERBB4/HER4): 3.12e-06 M | IC50 (MINK/MINK1): 4.16e-08 M
